## AlphaSeq binding of Ab-91 heavy chain variants to a spike HR2 peptide

The measurements come from Engelhart et al. 2022 (doi:10.1038/s41597-022-01779-4) through the FLAb antibody collection.

Binding partner: SARS-CoV-2 spike HR2 peptide, sequence PDVDLGDISGINAS.

The variants keep the light chain, the linker and the frameworks of Ab-91 (scFv order VL, three GGGGS repeats, VH).
VL: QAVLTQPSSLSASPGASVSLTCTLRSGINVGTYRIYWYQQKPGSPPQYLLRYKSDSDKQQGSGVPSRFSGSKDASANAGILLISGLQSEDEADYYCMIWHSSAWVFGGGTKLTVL
VH: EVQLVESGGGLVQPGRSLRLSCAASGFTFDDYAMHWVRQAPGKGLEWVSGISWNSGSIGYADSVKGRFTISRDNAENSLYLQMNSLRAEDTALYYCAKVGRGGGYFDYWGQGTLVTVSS

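The parent was found by panning a naive human phage display library on the peptide. The library (AAYL51) carries one to three amino acid substitutions per variant, with no insertions or deletions. The assay is AlphaSeq: two haploid yeast populations carry antibody and antigen on their surface. Binding brings cells together so that they mate, and sequencing counts the barcode pairs among the diploids. Read counts were normalised to the haploid input and turned into Kd by a linear fit to BCL2-family pairs of known affinity, for each replicate. Each pool was mated in three replicate cultures.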

Substitutions are numbered in sequence along the VH above, starting at 1 (not Kabat). Values are apparent Kd, the geometric mean of the replicates that gave a signal; lower means stronger binding. "no signal" means that the variant was in the library but no mating with the target was seen in any replicate; the authors take this as a sign of poor binding, and no number exists.

| Kd | detected | changes |
|---|---|---|
| 14 µM | 2 of 3 | S55R+S57Y+V64D |
| 17 µM | 1 of 3 | Y32L+H35P+S55C |
| no signal | 0 of 3 | D30W+A33Y+Y105L |
| no signal | 0 of 3 | G26P+G50H+V99G |
| no signal | 0 of 3 | I51N+W53A+G104V |
| 34 µM | 3 of 3 | A33I+S55K+Y105D |
| 290 µM | 1 of 3 | F27T+G100L |
| 6.9 µM | 1 of 3 | D31R+M34D+G100E |
| 440 µM | 1 of 3 | M34P+H35L+G59P |
| no signal | 0 of 3 | M34Q+K65E+G104C |
| 53 µM | 3 of 3 | Y60H+G103Y |
| no signal | 0 of 3 | T28P+I58Q+V99D |
| 27 nM | 3 of 3 | A61G+V99W+G100V |
| no signal | 0 of 3 | T28V+H35F+Y60G |
| 56 nM | 3 of 3 | T28E+A61V |
| no signal | 0 of 3 | G50D+S52F+F106G |
| no signal | 0 of 3 | N54R+G59Q+G104P |
| 5.0 nM | 3 of 3 | D31H+G56N+D62E |
| 55 µM | 1 of 3 | S55K+K65F+G102T |
| no signal | 0 of 3 | D31K+M34V+V99Y |
| no signal | 0 of 3 | I58A+G104W+D107T |
| 7.4 µM | 2 of 3 | Y32S+I51T+G102T |
| no signal | 0 of 3 | F27R+H35Q+V99H |
| no signal | 0 of 3 | G26R+A33P+G59N |
| 4.4 µM | 3 of 3 | S55K+S63N+Y105D |
| no signal | 0 of 3 | S55T+S57C+G59H |
| no signal | 0 of 3 | G50W+G102A+F106V |
| no signal | 0 of 3 | D31W+Y32F+G50P |
| no signal | 0 of 3 | T28F+Y32T+G100C |
| no signal | 0 of 3 | W53I+S63H+V64S |
| 4.2 µM | 1 of 3 | F27K+W53R+D107W |
| 8.9 µM | 1 of 3 | M34T+S52Q+Y60G |
| 2.5 µM | 1 of 3 | A33V+Y60F |
| no signal | 0 of 3 | F29W+W53Q+G59E |
| no signal | 0 of 3 | H35W+V99T+R101D |
| 5.4 µM | 1 of 3 | G50N+W53I |
| 120 µM | 1 of 3 | M34S+I51A+W53E |
| 93 µM | 3 of 3 | I51S+I58H+S63G |
| 200 µM | 2 of 3 | F29S+G50E+G100S |
| 91 nM | 2 of 3 | K65A+F106G |
| no signal | 0 of 3 | F27E+S57D+G100L |
| no signal | 0 of 3 | G26V+D62W+G103H |
| 44 µM | 2 of 3 | W53N+G59Y+V64W |
| no signal | 0 of 3 | G59C+G100F+Y108F |
| no signal | 0 of 3 | N54Q+Y60L+S63W |
| no signal | 0 of 3 | A33R+S52M+Y108L |
| 300 µM | 2 of 3 | G26H+I58W+K65Q |
| 97 µM | 3 of 3 | M34L+W53I+A61R |
| 99 µM | 1 of 3 | A33Y+M34W+S57L |
| 2.8 µM | 2 of 3 | D31N+Y60R |
| 1.3 mM | 1 of 3 | H35A+I51M |
| 160 µM | 1 of 3 | Y32V+M34R+K65D |
| 39 nM | 1 of 3 | D30E+Y32P+S63N |
| 680 µM | 3 of 3 | Y32M+S52P+G100A |
| no signal | 0 of 3 | M34P+W53Y+G59S |
| no signal | 0 of 3 | F29Q+M34N+G50M |
| no signal | 0 of 3 | F29D+A61I+Y108S |
| 960 nM | 3 of 3 | H35C+W53Q+I58L |
| 5.3 µM | 1 of 3 | S55H+G103W+Y105R |
| 53 µM | 2 of 3 | N54H+A61E+S63Q |
| no signal | 0 of 3 | F27I+S52I+G103K |
| 120 µM | 2 of 3 | M34R+S55T+I58P |
| 360 µM | 1 of 3 | D30A+S57D+I58H |
| 1.4 µM | 3 of 3 | S57Q+Y108P |
| 250 µM | 3 of 3 | F27K+F29S+H35Y |
| 140 µM | 2 of 3 | G26D+D31R+G50A |
| no signal | 0 of 3 | G26S+F27I+N54W |
| 11 µM | 3 of 3 | Y32C+S57E+A61Y |
| no signal | 0 of 3 | G26I+G59N+F106M |
| no signal | 0 of 3 | A33R+N54Q+V99H |

Picked from the list: the 10 lowest averages where every replicate gave a value.

changes,Kd,detected
D31H+G56N+D62E,5.0 nM,3 of 3
A61G+V99W+G100V,27 nM,3 of 3
T28E+A61V,56 nM,3 of 3
H35C+W53Q+I58L,960 nM,3 of 3
S57Q+Y108P,1.4 µM,3 of 3
S55K+S63N+Y105D,4.4 µM,3 of 3
Y32C+S57E+A61Y,11 µM,3 of 3
A33I+S55K+Y105D,34 µM,3 of 3
Y60H+G103Y,53 µM,3 of 3
I51S+I58H+S63G,93 µM,3 of 3

Nonspecific signal, from three strains lacking the peptide, appeared in 21% of pairings of library AAYL51, centred on 34 µM (5% of these signals below 1.8 µM); values are not corrected for it.